Measurements reported in patent US9539284B2 (GLOBOASIA, LLC, priority 2006, dated 2017).
Several values for one entry are separate records, joined by “and”; a condition that tells them apart may be missing. Identical values can stand only once.

Assays:
[1] = Fe3+ content per 500 mg compound (selection criterion 3); assay type: physicochemical; settings: unit mg
Text: 3. Appropriate equivalence of ferric ion per gram of compound. The potential ferric compound should contain enough ferric ions to effectively bind with dietary phosphate.

[2] = cited from earlier work

| Substance | Fe^3+ content per 500 mg compound [1] | pKa of anionic group, pKa1 ([2]; first pKa) | pKa of anionic group, pKa2 ([2]; second pKa) |
| --- | --- | --- | --- |
| ferric bicarbonate | 117 mg | – | – |
| ferric succinate | 69 mg and 122 mg | pKa1 = 4.21 | pKa2 = 5.64 |
